According to US20110059095A1:
Residue numbers refer to the chain shown, from its start. Values belong to the binder of their own block, whether it stands above or below them.

The chains behind the UniProt entries cited, without tags or fusion partners. Residues count along the entry.
UniProt P55085, 26-397 G138A limits assumed: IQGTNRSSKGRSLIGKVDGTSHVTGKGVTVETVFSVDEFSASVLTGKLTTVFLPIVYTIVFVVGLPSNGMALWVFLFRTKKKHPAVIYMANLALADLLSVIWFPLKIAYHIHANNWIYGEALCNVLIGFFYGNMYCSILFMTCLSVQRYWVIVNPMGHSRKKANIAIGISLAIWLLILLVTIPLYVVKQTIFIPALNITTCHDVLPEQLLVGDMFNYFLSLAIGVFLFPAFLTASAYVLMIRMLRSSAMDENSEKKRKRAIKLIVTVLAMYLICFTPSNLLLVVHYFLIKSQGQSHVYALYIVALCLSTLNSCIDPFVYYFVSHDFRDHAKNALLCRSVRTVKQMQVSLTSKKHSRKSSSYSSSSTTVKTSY

Tests used:
[1] = biological target: full length human PAR-2 (human) (UniProt P55085); experiment: cell ELISA, 10 ug/ml antibody
[2] = biological target: T1, Peptide B (human PAR-2), C-terminal biotinylated (Human); experiment: peptide ELISA
T1 sequence (peptide, C-terminal biotin via G4S linker): SLIGKVDGTSHVTGGGGGS

[3] = biological target: T2, Peptide B (human PAR-2), N-terminal biotinylated (Human); experiment: peptide ELISA
T2 sequence (peptide, N-terminal biotin via G4S linker): GGGGSSLIGKVDGTSHVTG

- A450 ratio (293/D9/hPAR-2rec to 293/D9 cells) [1]: 1.66
- OD450 [2]: 0 to 0.09 od
- OD450 [3]: 0 to 0.09 od
B1: H2M610N (antibody, V domains shown)
VH: EVQLVESGGNLVQPGRSLRLSCAASGFTFDDYAMHWVRQAPGKGLEWVSGISWNSGSRGYADSVKGRFTISRDNAKNSLYLQMNSLRTEDTAFYYCTKEDEAFDYWGQGTLVTVSS
VL: DIVMTQTPLSSPVTLGQPASISCRSSQSLVHSDRNTYLSWLQQRPGQPPRLLIYKISNRFSGVPDRFSGSGAGTDFTLKISRVEAEDVGFYYCMQATQFPYTFGQGTKLQIN

- A450 ratio (293/D9/hPAR-2rec to 293/D9 cells) [1]: 1.9
B2: H1M612N (antibody, V domains shown)
VH: EVQLVESGGGLVQPGRSLRLSCAASGFTFDDYAMHWVRQAPGKGLEWVSGITWNSGNMAYADSVKGRFTISRDNAKNSLYLQMNSLRAEDTALYYCAKENWAFDYWGQGTRVIVSS
VL: B1 VL with Q27H, R34G, F90V, Y92F, Q110E, N112K

- A450 ratio (293/D9/hPAR-2rec to 293/D9 cells) [1]: 1.17
B3: H2M614N (antibody, V domains shown)
VH: B1 VH with N10G, A40V, S52T, R58I, G59D, T88A, T97V
VL: B1 VL with R34G, F67I, F90V, Q110E, N112K
